Experimental data as given in PubChem BioAssay AID873 (PCMD, 2007).
This is a selection; strong and weak results do not stand in their true shares. The source made the active and inactive calls.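 How the source made its calls: active means inhibition of 40% or more; inactive means the rest.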

The chains behind the UniProt entries cited, without tags or fusion partners.
UniProt Q9Y337, whole entry, looked up: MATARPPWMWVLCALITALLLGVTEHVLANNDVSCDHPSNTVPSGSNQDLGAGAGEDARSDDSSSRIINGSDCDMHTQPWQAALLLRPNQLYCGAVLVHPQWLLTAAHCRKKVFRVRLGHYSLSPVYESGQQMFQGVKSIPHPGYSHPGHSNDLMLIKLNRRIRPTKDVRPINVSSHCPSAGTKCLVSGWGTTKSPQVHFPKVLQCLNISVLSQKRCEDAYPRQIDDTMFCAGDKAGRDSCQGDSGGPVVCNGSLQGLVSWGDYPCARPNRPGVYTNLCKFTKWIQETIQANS

Biological target: Kallikrein-5 (Homo sapiens) (UniProt Q9Y337)
Experiment: human KLK5 protease inhibitors, primary screen, biochemical, 1536-well (AID 873);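 further: 0% = enzyme controls without compound and 100% = no-enzyme blanks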
Conditions: recombinant hK5, fluorogenic AMC substrate cleavage; at 5 µM; stronger effect = higher value

SMILES | inhibition
O=[As](O)(c1ccccc1Br)c1ccccc1Br | inactive: -1.02%
CC(C)/C=N\N=C(\N)N[N+](=O)[O-] | inactive: -3.7%
CCOP(=O)(Nc1ccc(C)cn1)OCC | inactive: 0.2%
O=P1(Nc2ccccn2)COc2ccccc2OC1 | inactive: -1.82%
CC(C)(C)C(=O)NC(Sc1ncccn1)C(Cl)(Cl)Cl (stereo unspecified) | inactive: 0.15%
Clc1n[nH]nc1-c1nn[nH][15n]1 | inactive: 2.42%
O=P1(Nc2ncccn2)COc2ccccc2OC1 | inactive: -15%
O=P1(Nc2ccc(Br)cn2)COc2ccccc2OC1 | inactive: -50%
O=[As](O)(c1cccs1)c1cccs1 | inactive: -0.68%
Cc1ccc(OCC(=O)OC2CN3CCC2CC3)cc1 (stereo unspecified) | inactive: -23.4%
Nc1cccc([As](=O)(O)c2ccccc2)c1 | inactive: -1.53%
CC1CCC(C(C)C)C(OP(=O)(Nc2ccccn2)c2ccccc2)C1 (stereo unspecified) | inactive: 14.1%
Cc1nn(-c2ccccc2)c2c1P(=O)(N1CCOCC1)N(C)C(c1ccccc1)=N2 (stereo unspecified) | inactive: 3.25%
O=C(/C=C/c1ccccc1)OC1CN2CCC1CC2 (stereo unspecified) | inactive: 3.14%
CN(C)C1(CNC(=O)c2ccc(S(C)(=O)=O)cc2)CCCCC1 | inactive: -6.07%
NC(=O)Nc1ccc([As](=O)(O)O)cc1 | inactive: 0.11%
O=[N+]([O-])c1ccc2c(c1)nnn2O | inactive: 0.95%
CN(C(=O)Cc1ccccc1)[C@@H]1CC[C@]2(CCCO2)C[C@H]1N1CCCC1 | inactive: 2.72%
CCOP1(=S)c2c(C)nn(CCC#N)c2N=C(c2ccc(F)cc2)N1C (stereo unspecified) | inactive: -20.2%
CS(=O)(=O)c1cc([N+](=O)[O-])c2no[n+]([O-])c2c1 | inactive: -5.95%
O=P(Nc1nccs1)(c1ccccc1)c1nc2ccccc2s1 (stereo unspecified) | inactive: 4.25%
O=P(Nc1nccs1)(Oc1ccccc1)Oc1ccccc1 | inactive: -3.24%

SMILES | inhibition
CCOP1(=S)c2c(C)nn(CCC#N)c2N=C(c2ccccc2F)N1C (stereo unspecified) | inactive: 2.95%
Nc1ccccc1[As](=O)(O)c1ccccc1 | inactive: 1.12%
O=C(O)COc1ccc([As](=O)(O)O)cc1[N+](=O)[O-] | inactive: -2.69%
CCCOP(=S)(Nc1nc(N)cc(=O)[nH]1)OCCC | inactive: -2.12%
Nc1cccc2c([As](=O)(O)O)cccc12 | inactive: -5.78%
Cc1ccc(NCCc2c([N+](=O)[O-])cc([N+](=O)[O-])cc2[N+](=O)[O-])cc1 | inactive: -5.12%
CCOP(=O)(Nc1cccc2ccccc12)OCC | inactive: -9.51%
COc1cc(C2NCCC3(OCCO3)C2(C)C)cc(OC)c1OC (stereo unspecified) | inactive: -9.85%
COc1cc(C(=O)NCC2(N3CCOCC3)CCCCC2)cc(Cl)c1OC(C)C | inactive: -1.88%
O=[As](O)(O)c1cccnc1 | inactive: 5.52%
O=C(OC1CN2CCC1CC2)c1ccc(Cl)cc1 (stereo unspecified) | inactive: -0.62%
O=[As](O)(c1cccc(O)c1)c1cccc(O)c1 | inactive: -4.26%
Cc1cccc(OCC(=O)OC2CN3CCC2CC3)c1 (stereo unspecified) | inactive: -13.3%
COc1ccc(N/C(=N/P(=O)(N2CCOCC2)N2CCOCC2)N2CCOCC2)cc1 | inactive: -0.87%
Cc1cc(=O)[nH]c(N[N+](=O)[O-])n1 | inactive: -3.2%
O=C(OC1CN2CCC1CC2)C12CC3CC(CC(C3)C1)C2 (stereo unspecified) | inactive: -1.44%
Cc1c2c(nc3ccccc13)SC(C(Cl)Cl)C2 (stereo unspecified) | inactive: -14.9%
COc1cc(I)ccc1[As](=O)(O)O | inactive: -3.46%
COc1ccc2nc(NP(=O)(c3ccccc3)c3ccccc3)sc2c1 | inactive: -3.64%
CC(C)c1ccc(OP(=O)(Nc2ccccn2)Oc2ccccc2F)cc1 (stereo unspecified) | inactive: -2.46%
ClCCSc1nnc(-c2cccnc2)o1 | inactive: -5.89%
O=[N+]([O-])c1cc([N+](=O)[O-])c(-c2ccn[nH]2)s1 | inactive: -10.7%

SMILES | inhibition
CCN(CC)C(=S)SC(NC=O)C(Cl)(Cl)Cl (stereo unspecified) | inactive: -0.38%
CC(C)NC(=O)NP(=O)(Oc1ccccc1)Oc1ccccc1 | inactive: 1.08%
C[As](=O)(O)c1cccc(C(=O)O)c1 | inactive: 0.63%
O=[As](O)(c1ccc(O)cc1)c1ccccc1O | inactive: 11.7%
Cc1ccc2nc3c(c(C)c2c1)CC(C(Cl)Cl)S3 (stereo unspecified) | inactive: 4.09%
Cc1ccc(OP(=O)(Nc2ccc([N+](=O)[O-])cn2)Oc2ccc(C)cc2)cc1 | inactive: 23%
CCOC(=O)Nc1cccc([As](=O)(O)O)c1 | inactive: 14.8%
O=[N+]([O-])c1ccc(Nc2ccc(Oc3ccc([N+](=O)[O-])cc3[N+](=O)[O-])cc2)c([N+](=O)[O-])c1 | inactive: -5.43%
O=P(Nc1ccccn1)(c1cccc2ccccc12)c1cccc2ccccc12 | inactive: -20.4%
Cc1cc(SC(NC=O)C(Cl)(Cl)Cl)ncn1 (stereo unspecified) | inactive: 2.93%
CCOC(=O)Nc1ccc([As](=O)(O)O)c(O)c1 | inactive: 5.86%
Cc1cc(SC(NC(=O)c2ccccc2)C(Cl)(Cl)Cl)nc(C(C)C)n1 (stereo unspecified) | inactive: -0.42%
CCOC(=O)c1ccc(NC(=O)C(C)(CCl)SC)cc1 (stereo unspecified) | inactive: 1.68%
CCC(C)N(CC(C)C)C(=S)SC(NC(C)=O)C(Cl)(Cl)Cl (stereo unspecified) | inactive: 4.2%
COP1(=S)c2c(C)nn(CCC#N)c2N=C(c2ccc(F)cc2)N1C (stereo unspecified) | inactive: 6.85%
O=C(COc1ccccc1)OC1CN2CCC1CC2 (stereo unspecified) | inactive: 0.45%
C[N+]1=C2C=CC=CC=C2SC12C([N+](=O)[O-])=CC([N+](=O)[O-])=C[C-]2[N+](=O)[O-] (stereo unspecified) | inactive: 4.31%
Nc1ccc([As](=O)(O)c2ccc(N)cc2)cc1 | inactive: 5.67%
CCN(/C(=N/P(=O)(N1CCOCC1)N1CCOCC1)N1CCOCC1)c1ccc(OC)cc1 | inactive: -3.58%
CN(C)C(=O)OCCc1n(C)cc[n+]1C | inactive: -13.4%
CC(C)=N/N=C(\N)N[N+](=O)[O-] | inactive: -1.41%
CC1CCN(C(=O)Oc2c(Cl)cc(Cl)c3cccnc23)CC1 | inactive: -0.98%
